For 1 compound, inhibition results are on record in ChEMBL document CHEMBL4229486, “Design and synthesis of novel thiadiazole-thiazolone hybrids as potential inhibitors of the human mitotic kinesin Eg5” (Bioorg Med Chem Lett, 2018).

SMILES strings stand for the structures. The source made the active and inactive calls. No cut-off for these calls is given here.

For this test, the target named is T1, Kinesin-like protein KIF11 (Homo sapiens) (UniProt P52732).
T1 sequence (whole entry): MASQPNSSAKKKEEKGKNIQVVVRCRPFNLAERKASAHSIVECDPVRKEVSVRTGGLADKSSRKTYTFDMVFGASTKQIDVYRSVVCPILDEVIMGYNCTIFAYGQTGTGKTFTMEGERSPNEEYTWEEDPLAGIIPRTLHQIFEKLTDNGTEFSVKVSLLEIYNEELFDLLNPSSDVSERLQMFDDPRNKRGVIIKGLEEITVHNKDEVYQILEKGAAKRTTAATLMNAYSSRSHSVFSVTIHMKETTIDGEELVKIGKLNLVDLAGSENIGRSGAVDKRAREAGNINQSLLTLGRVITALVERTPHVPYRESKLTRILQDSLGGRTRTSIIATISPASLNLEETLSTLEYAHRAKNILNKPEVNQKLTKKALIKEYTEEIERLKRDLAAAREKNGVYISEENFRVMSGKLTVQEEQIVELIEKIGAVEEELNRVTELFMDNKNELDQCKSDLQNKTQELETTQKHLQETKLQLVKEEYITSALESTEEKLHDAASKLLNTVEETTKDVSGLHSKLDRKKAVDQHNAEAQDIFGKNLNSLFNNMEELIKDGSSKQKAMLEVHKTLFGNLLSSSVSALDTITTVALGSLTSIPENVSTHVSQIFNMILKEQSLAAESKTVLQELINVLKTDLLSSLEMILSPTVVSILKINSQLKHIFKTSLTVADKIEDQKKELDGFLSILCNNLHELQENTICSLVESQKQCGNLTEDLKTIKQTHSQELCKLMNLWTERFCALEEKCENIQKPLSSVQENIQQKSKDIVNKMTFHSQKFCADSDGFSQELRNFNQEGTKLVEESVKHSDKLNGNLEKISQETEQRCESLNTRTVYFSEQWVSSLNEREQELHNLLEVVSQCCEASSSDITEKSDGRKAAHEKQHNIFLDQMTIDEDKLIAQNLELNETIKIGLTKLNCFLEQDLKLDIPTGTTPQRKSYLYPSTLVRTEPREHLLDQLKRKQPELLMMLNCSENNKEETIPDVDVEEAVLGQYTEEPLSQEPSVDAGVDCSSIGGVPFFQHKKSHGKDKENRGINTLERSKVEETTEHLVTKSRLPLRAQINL
The test can be described thus: Inhibition of basal EG5 ATPase activity (unknown origin) by pyruvate kinase/lactate dehydrogenase enzyme coupled photometric assay.

On to `CC(=O)N1N=C(NC2=NC(=O)/C(=C/c3ccccc3[N+](=O)[O-])S2)SC1(C)c1ccccc1` (stereo unspecified), for which the inhibition result was “inactive”.
